Assay results from patent US9206164B2, “Pyrazole compounds as CRTH2 antagonists” (Boehringer Ingelheim International GmbH, priority 2011, dated 2015).

By UniProt entry, the sequences of proteins in these tests, tags left out.
UniProt Q9Y5Y4, whole entry: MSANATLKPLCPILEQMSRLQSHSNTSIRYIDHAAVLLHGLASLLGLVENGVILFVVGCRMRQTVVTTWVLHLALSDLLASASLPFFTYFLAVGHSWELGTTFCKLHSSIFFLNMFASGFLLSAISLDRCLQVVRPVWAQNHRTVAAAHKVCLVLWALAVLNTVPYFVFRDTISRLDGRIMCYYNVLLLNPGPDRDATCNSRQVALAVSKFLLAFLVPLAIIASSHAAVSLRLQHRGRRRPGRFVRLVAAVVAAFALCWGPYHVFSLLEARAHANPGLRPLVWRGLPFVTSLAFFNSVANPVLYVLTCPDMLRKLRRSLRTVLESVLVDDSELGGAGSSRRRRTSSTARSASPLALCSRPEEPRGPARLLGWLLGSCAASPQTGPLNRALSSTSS

Molecular target: human CRTH2 receptor (Homo sapiens (Human), UniProt Q9Y5Y4)
Test: CRTH2 receptor radioligand binding assay (SPA, [3H]-PGD2 displacement)
Settings: antagonistic activities of selected compounds
Method: The binding of CRTH2 antagonists is determined using membranes prepared from Chinese hamster ovary cells (CHO-K1 cells) transfected with the human CRTH2 receptor (CHO-K1-hCRTH2 cells, Perkin Elmer, Cat No ES-561-C). To produce cell membranes the CHO-K1-hCRTH2 cells are cultured in suspension in CHO SFMII medium supplemented with 400 μg/ml G418. The cells are harvested by centrifugation at 300 g for 10 min at room temperature. The cell pellet is resuspended in Phosphate Buffer Saline (PBS) including a protease inhibitor mix (Complete, Roche) and adjusted to a concentration of 10E7 cells/ml. The CHO-K1-hCRTH2 cells are disrupted by nitrogen […] to obtain the membrane preparation. Cell debris is removed by centrifugation (500 g at 4° C., 30 min) and the supernatant is transferred into fresh tubes followed by a second centrifugation at 40000 g for 1 h at 4° C. to sediment the membranes. The membranes are suspended in SPA incubation buffer (50 mM Tris HCl, 10 mM MgCl2, 150 mM NaCl, 1 mM EDTA, pH 7.4) without bovine serum albumin, homogenized by passing through a single use needle (Terumo, 23G×1″), and stored in aliquots at −80° C.
The CRTH2 receptor binding assay is performed in a scintillation proximity assay (SPA) format with the radioligand [^3H]-PGD2 (Perkin Elmer, NET616000MC). […] Bound radioactivity is determined with a scintillation counter (Micro Beta Trilux, Wallac).
The binding of [^3H]-PGD2 to CHO-K1-hCRTH2 cell membranes is determined in the absence (total binding, Bo) and presence (non-specific binding, NSB) of unlabelled PGD2 (1 μM, Cayman Chemical, Cat No 12010) or a reference CRTH2 antagonist (10 μM CAY10471, Cayman Chemical, Cat No 10006735).
Determination of the affinity of a test compound is calculated by subtraction of the non-specific binding (NSB) from the total binding (Bo) or the binding in the presence of the test compound (B) at a given compound concentration. […]

Cc1nn(Cc2ccc(-c3nc4cc(Cl)c(Cl)cc4n3C)cc2)c(C)c1CC(=O)O
Ki: 138 nM

CCc1nn(Cc2ccc(-c3nc4cc(Br)ccc4[nH]3)cc2)c(CC)c1CC(=O)O
Ki: 0.3 nM

CCc1nn(Cc2ccc(-c3nc4cc(C)ccc4[nH]3)cc2F)c(CC)c1CC(=O)O
Ki: 1.4 nM
